From patent US6831091B2, “Salt forms of 3-(4-bromo-2,6-difluoro-benzyloxy)-5-[3-(4-pyrrolidin-1-yl-butyl)-ureido]-isothiazole-4-carboxylic acid amide and method of production” (priority 2000, dated 2004)

Conditions: compared with free base or hydrochloride form

## 3-(4-bromo-2,6-difluoro-benzyloxy)-5-[3-(4-pyrrolidin-1-yl-butyl)-ureido]-isothiazole-4-carboxylic acid amide hemi-citrate [Example 4]
  kinetic solubility relative to free base or hydrochloride: greater kinetic solubility than the free base or hydrochloride form
